Measured values published in patent US9334269B2, “Carboxamides as inhibitors of voltage-gated sodium channels” (AMGEN INC., priority 2010, dated 2016).

Sequences of proteins named here, by UniProt entry; tags and fusion partners are left off.
UniProt Q15858, whole entry: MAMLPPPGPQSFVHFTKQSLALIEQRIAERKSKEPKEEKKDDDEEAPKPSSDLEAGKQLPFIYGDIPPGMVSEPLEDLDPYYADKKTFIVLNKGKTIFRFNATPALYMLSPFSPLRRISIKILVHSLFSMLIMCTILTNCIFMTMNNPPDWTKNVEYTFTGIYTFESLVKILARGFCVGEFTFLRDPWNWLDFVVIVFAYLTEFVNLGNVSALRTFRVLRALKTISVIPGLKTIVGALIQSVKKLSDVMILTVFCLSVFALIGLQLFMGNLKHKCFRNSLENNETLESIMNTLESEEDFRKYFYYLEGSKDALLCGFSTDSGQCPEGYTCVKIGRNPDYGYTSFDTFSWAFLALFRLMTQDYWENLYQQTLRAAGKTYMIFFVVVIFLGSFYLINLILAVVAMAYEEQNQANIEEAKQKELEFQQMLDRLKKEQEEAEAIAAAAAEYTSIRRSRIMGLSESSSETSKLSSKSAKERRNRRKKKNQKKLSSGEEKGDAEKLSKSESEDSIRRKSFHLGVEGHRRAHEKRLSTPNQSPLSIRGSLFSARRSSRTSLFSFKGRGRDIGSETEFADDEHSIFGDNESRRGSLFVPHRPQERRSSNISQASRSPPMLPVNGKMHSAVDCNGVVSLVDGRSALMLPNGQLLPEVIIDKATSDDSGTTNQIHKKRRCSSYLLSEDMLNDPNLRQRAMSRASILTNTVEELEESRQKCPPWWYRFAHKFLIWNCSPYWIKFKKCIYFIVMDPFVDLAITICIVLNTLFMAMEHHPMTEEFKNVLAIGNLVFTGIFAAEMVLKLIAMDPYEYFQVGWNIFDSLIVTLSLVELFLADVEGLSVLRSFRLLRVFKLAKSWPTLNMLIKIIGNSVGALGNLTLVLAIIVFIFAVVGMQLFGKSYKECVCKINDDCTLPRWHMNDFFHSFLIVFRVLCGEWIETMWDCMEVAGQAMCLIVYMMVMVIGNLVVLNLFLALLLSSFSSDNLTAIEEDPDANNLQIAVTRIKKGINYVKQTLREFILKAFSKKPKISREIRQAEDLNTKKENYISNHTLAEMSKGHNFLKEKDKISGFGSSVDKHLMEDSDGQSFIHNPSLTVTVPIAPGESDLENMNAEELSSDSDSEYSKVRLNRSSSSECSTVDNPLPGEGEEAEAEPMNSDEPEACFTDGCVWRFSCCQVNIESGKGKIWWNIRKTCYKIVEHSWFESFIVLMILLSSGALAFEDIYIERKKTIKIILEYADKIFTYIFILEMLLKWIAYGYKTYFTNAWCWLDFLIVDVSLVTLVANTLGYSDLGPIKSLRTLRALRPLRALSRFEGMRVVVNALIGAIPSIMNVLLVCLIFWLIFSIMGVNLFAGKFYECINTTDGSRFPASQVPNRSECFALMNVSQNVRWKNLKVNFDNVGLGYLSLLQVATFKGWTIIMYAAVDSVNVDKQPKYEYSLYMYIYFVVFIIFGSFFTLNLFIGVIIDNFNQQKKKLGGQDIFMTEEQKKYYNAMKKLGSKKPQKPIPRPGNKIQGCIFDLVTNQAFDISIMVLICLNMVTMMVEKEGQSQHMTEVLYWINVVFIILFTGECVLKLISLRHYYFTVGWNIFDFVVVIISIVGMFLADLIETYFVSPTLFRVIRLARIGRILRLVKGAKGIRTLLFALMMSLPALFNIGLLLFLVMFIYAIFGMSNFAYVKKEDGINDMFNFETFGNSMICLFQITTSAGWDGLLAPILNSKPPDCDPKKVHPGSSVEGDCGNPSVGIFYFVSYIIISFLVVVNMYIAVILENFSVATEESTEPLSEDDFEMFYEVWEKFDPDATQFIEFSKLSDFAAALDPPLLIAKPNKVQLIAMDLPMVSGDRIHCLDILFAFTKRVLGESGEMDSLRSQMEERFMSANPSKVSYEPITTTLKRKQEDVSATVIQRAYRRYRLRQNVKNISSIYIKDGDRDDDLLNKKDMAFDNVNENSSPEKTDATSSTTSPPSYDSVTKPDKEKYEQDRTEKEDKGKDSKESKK

Target: human Nav1.7 (hNav1.7) (Homo sapiens, UniProt Q15858)
Assay: hNav1.7 whole-cell patch-clamp electrophysiology (automated PatchXpress 7000A or manual) in stably expressing 293 cells
Conditions: read-out: hNav1.7 IC50 (μM) (AVG); average IC50, human Nav1.7

| IC50 [µM] | SMILES |
| --- | --- |
| 3.17 | CNC(=O)c1cccc(Nc2ncnc(N3CCC(Oc4ccc(OC(F)(F)F)cc4)C3)n2)c1 (stereo not drawn) |
| 5.34 | CNC(=O)c1cccc(Nc2ncnc(N3CC(C(C)Oc4ccc(Cl)cc4)C3)n2)c1 (stereo not drawn) |
| 1.44 | CNC(=O)c1cccc(Nc2ncnc(NC(C)CCc3ccccc3)n2)c1 (stereo not drawn) |
